Test results from US7030242B2, “Selective inhibition of aggrecanase in osteoarthritis treatment” (Pfizer Inc, priority 1999, dated 2006).

target: T1, Human recombinant collagenase-1 (Homo sapiens, UniProt P03956); assay: Inhibition of human collagenase-1 (recombinant collagenase-1 assay); assay type: biochemical; details: Table 2, read-out: MMP-1 (IC50 class)
T1 sequence (P03956 100-469): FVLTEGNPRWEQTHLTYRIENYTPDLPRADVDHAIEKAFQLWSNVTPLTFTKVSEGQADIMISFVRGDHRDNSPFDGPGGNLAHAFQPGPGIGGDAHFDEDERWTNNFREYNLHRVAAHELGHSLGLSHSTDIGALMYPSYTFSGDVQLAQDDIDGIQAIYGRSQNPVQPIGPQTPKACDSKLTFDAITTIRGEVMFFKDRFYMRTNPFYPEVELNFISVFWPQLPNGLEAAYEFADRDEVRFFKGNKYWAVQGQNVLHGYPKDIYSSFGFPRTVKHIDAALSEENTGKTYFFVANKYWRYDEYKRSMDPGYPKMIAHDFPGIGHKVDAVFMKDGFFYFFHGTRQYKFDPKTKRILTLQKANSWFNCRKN

Compound | IC50
C[C@@]1(O)CCCN(S(=O)(=O)c2ccc(OCc3ccccc3Cl)cc2)[C@H]1C(=O)NO [(2R,3R) 1-[4-(2-chloro-benzyloxy)-benzenesulfonyl]-3-hydroxy-3-methyl-piperidine-2-carboxylic acidhydroxyamide] | 200 to 1000 nM
Cc1ccc(F)cc1COc1ccc(S(=O)(=O)N2CCC[C@@](C)(O)[C@@H]2C(=O)NO)cc1 [(2R,3R) 1-[4-(2-methyl-5-fluorobenzyloxy)-benzenesulfonyl]-3-hydroxy-3-methyl-piperidine-2-carboxylic acidhydroxyamide] | 200 to 1000 nM
Cc1cc(F)ccc1COc1ccc(S(=O)(=O)N2CCC[C@@](C)(O)[C@@H]2C(=O)NO)cc1 [(2R,3R) 1-[4-(4-fluoro-2-methyl-benzyloxy)-benzenesulfonyl]-3-hydroxy-3-methyl-piperidine-2-carboxylic acidhydroxyamide] | 200 to 1000 nM
